Measurements reported in ChEMBL document CHEMBL4834405, “Structure-Based Design of High-Affinity Macrocyclic FKBP51 Inhibitors” (J Med Chem, 2021).

How the values were obtained:
[1] = (§1) Selectivity ratio of Kd for displacement of fluorescent tracer 5-(3-(4-((1S,5S,6S)-10-(3,5-dichlorophenylsulfonyl)-2-oxo-3-(pyridin-3-ylmethyl)-3,10-diazabicyclo[4.3.1]decan-5-yl)-1H-1,2,3-triazol-1-yl)propylcarbamoyl)-2-(6-(dimethylamino)-3-(dimethyliminio)-3H-xanthen-9-yl)benzoate from recombinant full length C-terminal FLAG-tagged FKBP52 (unknown origin) to Kd for displacement of fluorescent tracer 5-(3-(4-((1S,5S,6S)-10-(3,5-dichlorophenylsulfonyl)-2-oxo-3-(pyridin-3-ylmethyl)-3,10-diazabicyclo[4.3.1]decan-5-yl)-1H-1,2,3-triazol-1-yl)propylcarbamoyl)-2-(6-(dimethylamino)-3-(dimethyliminio)-3H-xanthen-9-yl)benzoate from recombinant full length C-terminal FLAG-tagged FKBP51 (unknown origin)
[2] = as §1, with “FJBP12” for “FKBP52 (unknown origin)”
[3] = as §1, with “FKBP12.6” for “FKBP52”

Selectivity ratio [1]: > 120 | Selectivity ratio [2]: 3.1 | Selectivity ratio [3]: 2.4
Structure (SMILES): COc1cccc([C@@H](CCc2ccc(OC)c(OC)c2)OC(=O)[C@@H]2CCCCN2C(=O)[C@H](c2cc(OC)c(OC)c(OC)c2)C2CCCCC2)c1
